AlphaSeq binding of Ab-91 heavy chain variants to a spike HR2 peptide

Binding partner: SARS-CoV-2 spike HR2 peptide, sequence PDVDLGDISGINAS.

Parent: Ab-91, a human scFv built as VL, the linker GGGGSGGGGSGGGGS, VH. Only the CDRs of the heavy chain vary.
VL: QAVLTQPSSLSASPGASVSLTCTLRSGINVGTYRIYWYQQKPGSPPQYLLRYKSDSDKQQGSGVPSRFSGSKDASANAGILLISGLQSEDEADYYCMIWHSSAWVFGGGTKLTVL
VH: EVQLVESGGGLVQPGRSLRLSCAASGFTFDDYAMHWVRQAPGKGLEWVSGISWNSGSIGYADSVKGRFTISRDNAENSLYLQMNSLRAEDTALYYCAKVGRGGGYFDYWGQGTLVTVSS

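The parent was found by panning a naive human phage display library on the peptide. Library AAYL51 holds single substitutions and randomly drawn double and triple substitutions in the CDRs. Affinity was read by AlphaSeq, a pooled yeast mating assay with surface-displayed partners. The frequency of each diploid, read from paired DNA barcodes, reflects how well the two displayed proteins bind. Read counts were normalised to the haploid input and turned into Kd by a linear fit to BCL2-family pairs of known affinity, for each replicate. Mating was done three times.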

Sequences are complete VH domains. The Kd shown is the geometric mean over detected replicates; a lower Kd is a better binder. "nd" marks a missing value. The strain was present, yet no cells mated with the target were sequenced in any replicate, which points to weak or no binding.

Variant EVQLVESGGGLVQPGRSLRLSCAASGFTFDDYAMHWVRQAPGKGLEWVSGISWCSGSIGYADSVKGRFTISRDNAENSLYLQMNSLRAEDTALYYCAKVWRGGGYFDYWGQGTLVTVSS gave 180 µM (3 of 3 replicates; controls 4 of 9).
Variant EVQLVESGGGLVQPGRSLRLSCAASGFTKDDYAMHWVRQAPGKGLEWVSNISWNSGNIGYADSVKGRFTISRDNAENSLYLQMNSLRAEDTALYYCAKVGRGGGYFDYWGQGTLVTVSS gave 12 µM (1 of 3 replicates; controls 4 of 9).
Variant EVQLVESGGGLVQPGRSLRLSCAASGFTFDDYAMHWVRQAPGKGLEWVSGISWNSGSIGSADSHKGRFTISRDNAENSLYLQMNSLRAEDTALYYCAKVGRGGGYFDYWGQGTLVTVSS gave 31 µM (1 of 3 replicates; controls 1 of 9).
Variant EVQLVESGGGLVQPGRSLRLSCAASGFTFDRYAMHWVRQAPGKGLEWVSGISWNSGSIGYAYSVKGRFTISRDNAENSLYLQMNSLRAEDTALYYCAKVGRGGGYFDYWGQGTLVTVSS gave nd (0 of 3 replicates; controls 0 of 9).
Variant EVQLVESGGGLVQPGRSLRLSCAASGFTFDDYAMHWVRQAPGKGLEWVSGISWNSGSIGYADSVKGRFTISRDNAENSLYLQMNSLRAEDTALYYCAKVGRHGGVFDRWGQGTLVTVSS gave 22 nM (3 of 3 replicates; controls 3 of 9).
Variant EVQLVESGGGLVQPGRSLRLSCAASGFTFDDYAMHWVRQAPGKGLEWVSGISWNSGSEGYADSEKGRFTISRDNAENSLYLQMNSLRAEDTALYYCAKVTRGGGYFDYWGQGTLVTVSS gave 180 µM (1 of 3 replicates; controls 4 of 9).
Variant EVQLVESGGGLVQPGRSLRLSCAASGFTFDDYMMHWVRQAPGKGLEWVSGISWNSGSLGYADSVKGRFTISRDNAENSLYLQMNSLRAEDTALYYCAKVGRGGGTFDYWGQGTLVTVSS gave 430 µM (2 of 3 replicates; controls 3 of 9).
Variant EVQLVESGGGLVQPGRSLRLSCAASGFTFDWYAMHWVRQAPGKGLEWVSGISWNKGSIGYADSVVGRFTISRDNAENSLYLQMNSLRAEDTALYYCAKVGRGGGYFDYWGQGTLVTVSS gave 450 nM (1 of 3 replicates; controls 0 of 9).
Variant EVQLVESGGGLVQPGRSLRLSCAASGFTRPDYAMHWVRQAPGKGLEWVSGISWNSGSIGYADSVKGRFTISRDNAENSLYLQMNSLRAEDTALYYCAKVGEGGGYFDYWGQGTLVTVSS gave nd (0 of 3 replicates; controls 0 of 9).
Variant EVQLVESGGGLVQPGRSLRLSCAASGFTFDDWAMHWVRQAPGKGLEWVSGISWNSGTIGYADSVKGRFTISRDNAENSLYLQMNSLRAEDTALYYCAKVGRGGGTFDYWGQGTLVTVSS gave nd (0 of 3 replicates; controls 0 of 9).
Variant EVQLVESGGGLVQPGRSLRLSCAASGFTFDDYAMHWVRQAPGKGLEWVSGISWNSGSQGYADSVKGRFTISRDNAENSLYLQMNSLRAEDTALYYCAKVGRGGGGFDFWGQGTLVTVSS gave 150 µM (3 of 3 replicates; controls 2 of 9).
Variant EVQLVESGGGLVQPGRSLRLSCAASGFTFDDYAMVWVRQAPGKGLEWVSGISWNSGSIGYADYVKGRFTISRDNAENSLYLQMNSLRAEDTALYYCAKVGRGGGWFDYWGQGTLVTVSS gave nd (0 of 3 replicates; controls 2 of 9).
Variant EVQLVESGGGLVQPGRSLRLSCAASGFTFDDMAMHWVRQAPGKGLEWVSGISWNSGSIGYAISVKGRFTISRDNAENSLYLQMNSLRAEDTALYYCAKVGRGGGYFLYWGQGTLVTVSS gave nd (0 of 3 replicates; controls 0 of 9).
Variant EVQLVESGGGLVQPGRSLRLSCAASGWTFDDYAMHWVRQAPGKGLEWVSGDSWNSGEIGYADSVKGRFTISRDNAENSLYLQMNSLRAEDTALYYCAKVGRGGGYFDYWGQGTLVTVSS gave nd (0 of 3 replicates; controls 1 of 9).
Variant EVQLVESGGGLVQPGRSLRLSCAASGFTFDDYAMHWVRQAPGKGLEWVSGISWWSGSIQYADSVKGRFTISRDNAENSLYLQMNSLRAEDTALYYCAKVGRGGGYRDYWGQGTLVTVSS gave nd (0 of 3 replicates; controls 0 of 9).
Variant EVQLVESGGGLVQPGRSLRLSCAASGFTFDDYAMHWVRQAPGKGLEWVSGISWNSGSVMYADSVNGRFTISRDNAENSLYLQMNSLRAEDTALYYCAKVGRGGGYFDYWGQGTLVTVSS gave 340 µM (2 of 3 replicates; controls 5 of 9).
Variant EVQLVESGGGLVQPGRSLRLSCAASGFTFDDVAMHWVRQAPGKGLEWVSGISWNSGSSGMADSVKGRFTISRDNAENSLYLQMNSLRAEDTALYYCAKVGRGGGYFDYWGQGTLVTVSS gave 5.4 µM (3 of 3 replicates; controls 6 of 9).
Variant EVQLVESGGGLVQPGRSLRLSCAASGFTFDWYEMHWVRQAPGKGLEWVSGISWNSGSIGYADSVGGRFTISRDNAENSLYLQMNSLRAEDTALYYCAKVGRGGGYFDYWGQGTLVTVSS gave 42 µM (1 of 3 replicates; controls 3 of 9).
Variant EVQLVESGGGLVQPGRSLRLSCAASGFTFDDYAEHWVRQAPGKGLEWVSGISWNEGSIGYADSVKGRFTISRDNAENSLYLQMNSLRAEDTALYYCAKVGRGGGFFDYWGQGTLVTVSS gave 2.2 µM (1 of 3 replicates; controls 1 of 9).
Variant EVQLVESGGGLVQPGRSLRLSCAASGFKFDDYAMHWVRQAPGKGLEWVSGISWNSGSIGYADSVKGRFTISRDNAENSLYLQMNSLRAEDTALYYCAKVGRGLCYFDYWGQGTLVTVSS gave nd (0 of 3 replicates; controls 0 of 9).

From the list, the first 3 with no signal in any replicate:

Variant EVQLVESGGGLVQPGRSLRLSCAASGFTFDRYAMHWVRQAPGKGLEWVSGISWNSGSIGYAYSVKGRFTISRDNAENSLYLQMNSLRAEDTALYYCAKVGRGGGYFDYWGQGTLVTVSS gave nd (0 of 3 replicates; controls 0 of 9).
Variant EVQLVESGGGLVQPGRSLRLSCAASGFTRPDYAMHWVRQAPGKGLEWVSGISWNSGSIGYADSVKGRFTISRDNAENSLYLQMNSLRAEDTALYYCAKVGEGGGYFDYWGQGTLVTVSS gave nd (0 of 3 replicates; controls 0 of 9).
Variant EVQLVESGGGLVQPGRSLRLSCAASGFTFDDWAMHWVRQAPGKGLEWVSGISWNSGTIGYADSVKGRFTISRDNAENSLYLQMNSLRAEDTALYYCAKVGRGGGTFDYWGQGTLVTVSS gave nd (0 of 3 replicates; controls 0 of 9).

As a blank, each scFv also met three strains without target: over library AAYL51, 21% of these pairings were detected, typically at 34 µM and seldom below 1.8 µM. For each scFv, signals with the empty controls are counted beside the result. For reference, the parent read 72 nM as the reference entry and 7.5 nM as a member of this library.

The measurements come from Engelhart et al. 2022 (doi:10.1038/s41597-022-01779-4) through the FLAb antibody collection.